Measured affinities in a library of Ab-14 light chain variants

The measurements come from Li et al. 2023 (doi:10.1038/s41467-023-39022-2) through the FLAb antibody collection.

All variants were tested on one target, the spike HR2 peptide PDVDLGDISGINAS (SARS-CoV-2).

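The parent was found by panning a naive human phage display library on the peptide. These sequences belong to a second round, designed from the earlier measurements on random variants of the parent. Group labels follow the data file (En: ensemble of fine-tuned language models; GP: Gaussian process model; HC: hill climbing; Gen: genetic algorithm; Gibbs: Gibbs sampling; a sequence that several methods proposed may carry one label only). The scFvs were displayed on barcoded MATa yeast, the peptide on MATalpha yeast. Binding brings cells together so that they mate, and sequencing counts the barcode pairs among the diploids. Each replicate has its own calibration line, from reference interactions of the BCL2 family. There are six technical replicates.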

The variants keep the heavy chain, the linker and the frameworks of Ab-14 (scFv order VH, a 15-residue (Gly4Ser)3 linker, VL).
VH: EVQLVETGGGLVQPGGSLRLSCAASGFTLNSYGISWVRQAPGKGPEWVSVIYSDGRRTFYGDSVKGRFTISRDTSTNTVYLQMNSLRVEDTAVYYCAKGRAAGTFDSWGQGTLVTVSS
VL: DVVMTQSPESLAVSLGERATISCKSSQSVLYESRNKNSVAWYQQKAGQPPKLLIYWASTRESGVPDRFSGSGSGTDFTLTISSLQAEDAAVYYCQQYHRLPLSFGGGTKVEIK

Each variant is given by its three light chain CDRs, as the data file delimits them; those of the parent are KSSQSVLYESRNKNSVA, WASTRES, QQYHRLPLS.
This list holds designs with more than six substitutions.
Values are apparent Kd, the geometric mean of the replicates that gave a signal; lower means stronger binding.
The range of this assay differs from that of the first round, and the authors advise against merging the two.
In the paper, a design with two or fewer of six values counts as a poor binder.
The parent sequence was in this pool as ten entries: three were never detected, three once, and four in most replicates, with averages from 2.2 nM to 240 nM.
Empty control strains, which show no peptide, gave a signal in 4% of pairings with all light chain designs; the median was 430 nM and 95% of these signals were weaker than 38 nM. No background was subtracted. The control count says in how many pairings with the empty strains this scFv gave a signal.

For ILSQMLLTAGNKHSSVA | QANNRES | QQYHRLPLS [En_HC], the assay gave 59 nM (6 of 6 replicates; controls 1 of 18). With KLSPSVMYESRMKNSVA | MASTRYM | QQYHRLPLS [GP_Gibbs] the result was 3.8 nM (6 of 6 replicates; controls 0 of 18). For KLSQSMPYEERNKNSVA | NASQRMS | QQYHRLPLS [GP_Gibbs], the assay gave 1.3 nM (6 of 6 replicates; controls 0 of 18). With QLEFYDVQGTAKWHAIA | EGSQLAQ | QQYFHLPLG [En_Gibbs] the result was 8.3 nM (6 of 6 replicates; controls 0 of 18). The variant KLDQSQLLESRNKQSVA | NASQRCS | QQYHRLPLS [GP_Gibbs] gave 1.0 nM (6 of 6 replicates; controls 2 of 18). For KLSMMYQHTSRMKNNIA | ERSTREE | QQYHHLPLS [En_HC], the assay gave 27 nM (6 of 6 replicates; controls 0 of 18).

The variant KISQMVRVGSTHSNSIA | EEATRAK | QQYYRLPLA [En_Gen] showed 5.0 nM (6 of 6 replicates; controls 0 of 18). The variant KIGATLNTLMHTKNNVA | DLVTREN | QQYHRLPLS [En_Gen] gave 1.4 nM (6 of 6 replicates; controls 0 of 18). The variant KLPGATMQESVSKNSVA | ELSTRGS | QQYHRLPLS [En_HC] gave 3.2 nM (6 of 6 replicates; controls 0 of 18). The variant SIQFYTENFAEWGQSIA | DVSATTA | QQYHRLPLA [En_Gibbs] gave 9.9 nM (5 of 6 replicates; controls 0 of 18). The variant QLEWYNSTATEAKNSVA | GVEHRMN | QQYMRLPLF [En_Gibbs] showed 2.2 nM (6 of 6 replicates; controls 2 of 18). For MVNQIMDHLSKQTNNVA | ETTTREE | QQYDRLPLS [En_Gen], the assay gave 5.1 nM (6 of 6 replicates; controls 0 of 18).

For SLMQVAGYESNNKNSIA | DLRTRES | QQYHRLPLS [En_HC], the assay gave 4.5 nM (6 of 6 replicates; controls 3 of 18). The variant KLPQMTMQESVSKNSVA | ELSTRGS | QQYHRLPLS [En_HC] gave 1.2 nM (6 of 6 replicates; controls 0 of 18). For MIEIIQDGYMEMRSNVA | DTSLVRM | QQYARLPLM [En_Gibbs], the assay gave 31 nM (5 of 6 replicates; controls 0 of 18). With HISYSMQHLSKNKNSVA | NQQTRES | QQYHHLPLS [En_HC] the result was 27 nM (5 of 6 replicates; controls 0 of 18). The variant MISQVMNTLTREGNNVA | DLQEREE | QQYFRLPLS [En_Gen] showed 12 nM (6 of 6 replicates; controls 0 of 18). The variant KLSQSTNYLSRVMNSVA | DNSTRES | QQYFRLPLS [En_HC] gave 760 pM (6 of 6 replicates; controls 0 of 18).

For IISQMMLYESATHNSIA | QTSTREE | QQYHHLPLS [En_HC], the assay gave 14 nM (6 of 6 replicates; controls 1 of 18). With KISMMYRFEQTASNNIA | EMTTRAE | QFYHRLPLS [En_HC] the result was 22 nM (6 of 6 replicates; controls 0 of 18). The variant KISYMGDYFSTNHSSIA | QASTREQ | QQYHRLPLS [En_HC] gave 1.9 nM (6 of 6 replicates; controls 0 of 18). The variant TISQMTTLFSQTINNVA | EVSTREQ | QQYDRLPLI [En_Gen] gave 6.4 nM (6 of 6 replicates; controls 0 of 18). With KLQNSFLYESRMKNSVA | EASQREM | QQYHRLPLS [GP_Gibbs] the result was 1.7 nM (6 of 6 replicates; controls 0 of 18). For KGPQWQLYESRNKNNVA | NASTREM | QQYHRLPLS [GP_Gibbs], the assay gave 1.2 nM (6 of 6 replicates; controls 0 of 18).

The variant KIGDTLNQQMTKRNNVA | DLVTREN | QQYFRLPLS [En_Gen] gave 730 pM (6 of 6 replicates; controls 0 of 18). The variant KVSQSTEYESRMKNSVA | NASYREQ | QQYHRLPLS [GP_Gibbs] showed 770 pM (6 of 6 replicates; controls 1 of 18). The variant MMSQVTGLGQRHRNNVA | QTSTRCE | QQYDRLPLV [En_Gen] gave 23 nM (6 of 6 replicates; controls 2 of 18). The variant KIHMGWEMGSRTNDNIA | EADLRFS | QQYNRLPLF [En_Gibbs] showed 6.5 nM (6 of 6 replicates; controls 1 of 18). For KLPMATMVESLSKNNVA | ELSTRGS | QQYNRLPLS [En_HC], the assay gave 1.7 nM (6 of 6 replicates; controls 0 of 18). The variant KIDENTFHGANRQYNIA | EERTVGA | QQYFRLPII [En_Gibbs] gave 130 nM (1 of 6 replicates; controls 0 of 18).

For KITWSQYNWTSNYQAVA | EQNMRAR | QSYYRLPFS [En_Gibbs], the assay gave 110 nM (3 of 6 replicates; controls 1 of 18). For TISTSAQTESHNKNSVA | DLNVRGS | QQYDRLPLS [En_HC], the assay gave 4.7 nM (6 of 6 replicates; controls 1 of 18). For VIDAFNFSNGEKWNNIA | QDSTRLQ | QSYQRLPLA [En_Gibbs], the assay gave 540 nM (2 of 6 replicates; controls 2 of 18). The variant QLEWYNSTLTEAKNSVA | GVEHRMN | QQYMRLPLF [En_Gibbs] showed 7.6 nM (6 of 6 replicates; controls 3 of 18). The variant KILQEIENQTYNRNSVA | HSTTRED | QSYHRLPLS [En_HC] showed 16 nM (6 of 6 replicates; controls 1 of 18). The variant MISNVMNTLTRYGNNVA | DLTERER | QQYFRLPLS [En_Gen] showed 150 nM (5 of 6 replicates; controls 1 of 18).

A selection of 5 entries from above:

CDR-L1,CDR-L2,CDR-L3,group,Kd (apparent),detected,control signals
KLSQSTNYLSRVMNSVA,DNSTRES,QQYFRLPLS,En_HC,760 pM,6/6,0/18
KISYMGDYFSTNHSSIA,QASTREQ,QQYHRLPLS,En_HC,1.9 nM,6/6,0/18
VIDAFNFSNGEKWNNIA,QDSTRLQ,QSYQRLPLA,En_Gibbs,540 nM,2/6,2/18
MMSQVTGLGQRHRNNVA,QTSTRCE,QQYDRLPLV,En_Gen,23 nM,6/6,2/18
KVSQSTEYESRMKNSVA,NASYREQ,QQYHRLPLS,GP_Gibbs,770 pM,6/6,1/18